Laboratory results from patent US9890152B2 (Genentech, Inc., priority 2012, dated 2018).

By UniProt entry, the sequences of proteins in these tests, tags left out. Residues count along the entry.
UniProt P00533, 25-1210 T790M/L858R limits assumed: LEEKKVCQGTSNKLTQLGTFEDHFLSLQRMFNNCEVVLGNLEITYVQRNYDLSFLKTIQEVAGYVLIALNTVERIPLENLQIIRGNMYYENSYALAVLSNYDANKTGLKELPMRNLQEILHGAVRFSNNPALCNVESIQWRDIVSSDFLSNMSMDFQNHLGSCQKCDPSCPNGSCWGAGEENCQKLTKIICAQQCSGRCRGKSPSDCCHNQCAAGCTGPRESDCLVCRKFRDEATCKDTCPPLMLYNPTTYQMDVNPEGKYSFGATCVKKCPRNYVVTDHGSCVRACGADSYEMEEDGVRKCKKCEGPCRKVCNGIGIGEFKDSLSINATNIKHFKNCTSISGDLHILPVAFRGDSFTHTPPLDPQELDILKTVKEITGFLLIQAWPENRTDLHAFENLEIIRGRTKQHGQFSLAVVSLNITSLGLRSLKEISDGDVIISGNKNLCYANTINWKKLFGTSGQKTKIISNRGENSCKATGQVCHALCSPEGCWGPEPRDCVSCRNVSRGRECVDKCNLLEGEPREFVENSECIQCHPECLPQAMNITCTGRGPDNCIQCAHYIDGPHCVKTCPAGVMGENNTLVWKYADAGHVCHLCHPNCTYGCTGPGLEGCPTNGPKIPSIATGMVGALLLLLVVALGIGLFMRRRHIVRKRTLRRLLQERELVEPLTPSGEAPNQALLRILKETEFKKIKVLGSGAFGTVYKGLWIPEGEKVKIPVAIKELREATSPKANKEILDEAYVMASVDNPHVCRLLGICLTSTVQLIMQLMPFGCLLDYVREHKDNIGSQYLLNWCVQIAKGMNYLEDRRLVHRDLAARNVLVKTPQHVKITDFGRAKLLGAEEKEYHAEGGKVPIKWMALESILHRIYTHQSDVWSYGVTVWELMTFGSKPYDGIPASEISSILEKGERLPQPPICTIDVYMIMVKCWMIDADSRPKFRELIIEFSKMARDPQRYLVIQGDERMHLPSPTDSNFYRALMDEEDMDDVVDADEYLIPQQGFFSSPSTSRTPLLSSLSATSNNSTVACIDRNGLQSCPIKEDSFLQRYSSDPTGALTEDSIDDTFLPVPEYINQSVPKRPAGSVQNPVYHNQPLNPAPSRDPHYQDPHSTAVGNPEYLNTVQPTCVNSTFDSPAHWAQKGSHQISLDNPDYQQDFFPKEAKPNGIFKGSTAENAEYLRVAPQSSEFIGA

Target: EGFR T790M L858R (Homo sapiens, UniProt P00533, L858R/T790M)
Test: biochemical
Settings: EGFR(T790M/L858R) Ki (μM), 5 μM ATP, 30 min, room temperature; apparent Ki (Morrison) converted by Cheng-Prusoff, Km of ATP 1.3 μM

Row | Ki [µM] | Compound
1 | 0.0006 | CC(C)n1cc(C(=O)NC2CCCOC2)c2cnc(Nc3ccnc(-c4cnn(S(=O)(=O)C5CC5)c4)n3)cc21 (centres unmarked) [Example 459, 6-(2-(1-(cyclopropylsulfonyl)-1H-pyrazol-4-yl)pyrimidin-4-ylamino)-1-isopropyl-N-(tetrahydro-2H-pyran-3-yl)-1H-pyrrolo[3,2-c]pyridine-3-carboxamide]
2 | 0.983 | COC(C)(C)CCc1nccc(Nc2cc3c(cn2)nc(C)n3C(C)C)n1 [Example 305, (1-Isopropyl-2-methyl-1H-imidazo[4,5-c]pyridin-6-yl)-[2-(3-methoxy-3-methylbutyl)pyrimidin-4-yl]amine]
3 | 0.429 | CNC(=O)C1(C)CCN(c2nccc(Nc3cc4c(cn3)ncn4C(C)C)n2)CC1 [Example 202]
4 | 0.00236 | C[C@@H](n1c(CO)nc2cnc(Nc3ccnc(-c4cnn(S(=O)(=O)C5CC5)c4)n3)cc21)C(F)(F)F [Example 286, [(R)-6-[2-(1-Cyclopropanesulfonyl-1H-pyrazol-4-yl)pyrimidin-4-ylamino]-1-(2,2,2-trifluoro-1-methylethyl)-1H-imidazo[4,5-c]pyridin-2-yl]methanol]
5 | 0.0027 | CC(C)n1cc(C(=O)NC2CCOCC2)c2cnc(Nc3ccnc(N4CCC(O)C(C)(C)C4)n3)cc21 (racemic) [Example 385, (±)-6-((2-(4-hydroxy-3,3-dimethylpiperidin-1-yl)pyrimidin-4-yl)amino)-l-isopropyl-N-(tetrahydro-2H-pyran-4-yl)-1H-pyrrolo[3,2-c] pyridine-3-carboxamide]
6 | 0.422 | CC(C)n1cnc2cnc(Nc3ccnc(N4CCCC4CO)n3)cc21 (centres unmarked) [Example 203]
7 | 1.2 | CC(C)n1cnc2cnc(Nc3ccnc(N4CCCC5(CNCCO5)C4)n3)cc21 (centres unmarked) [Example 232]
8 | 0.137 | Cc1nc2cnc(Nc3ccnc(NCC(C)(C)C(=O)N(C)C)n3)cc2n1C(C)C [Example 462, 3-(4-(1-isopropyl-2-methyl-1H-imidazo[4,5-c]pyridin-6-ylamino)pyrimidin-2-ylamino)-N,N,2,2-tetramethylpropanamide]
9 | 0.141 | Cc1nc2cnc(Nc3ccnc(N4CC[C@@H](C#N)C4)n3)cc2n1C(C)C [Example 678]
10 | 0.109 | CC(C)n1cnc2cnc(Nc3ccnc(N4CCC(n5ccnc5)CC4)n3)cc21 [Example 134, [2-(4-Imidazol-1-yl-piperidin-1-yl)pyrimidin-4-yl]-(1-isopropyl-1H-imidazo[4,5-c]pyridin-6-yl)amine]
11 | 0.195 | Cc1nc2cnc(Nc3ccnc(-c4cccc(S(C)(=O)=O)c4)n3)cc2n1C(C)C [Example 92, 1-isopropyl-2-methyl-N-(2-(3-(methylsulfonyl)phenyl)pyrimidin-4-yl)-1H-imidazo[4,5-c]pyridin-6-amine]
12 | 0.00137 | CCC(C)n1cc(C(=O)NC2CCN(C3COC3)CC2)c2cnc(Nc3ccnc(-c4cnn(S(=O)(=O)C5CC5)c4)n3)cc21 (racemic) [Example 371, (±)-1-(sec-butyl)-6-((2-(1-(cyclopropylsulfonyl)-1H-pyrazol-4-yl)pyrimidin-4-yl)amino-N-(1-(oxetan-3-yl)piperidin-4-yl)-1H-pyrrolo[3,2-c]pyridine-3-carboxamide]
13 | 0.00621 | Cc1nc2cnc(Nc3ccnc(-c4cnn(S(=O)(=O)N(C)C)c4)n3)cc2n1C(C)C [Example 397, 4-(4-((1-isopropyl-2-methyl-1H-imidazo[4,5-c]pyridin-6-yl)amino)pyrimidin-2-yl)-N,N-dimethyl-1H-pyrazole-1-sulfonamide]
14 | 0.247 | CC(C)OC1CCN(c2nccc(Nc3cc4c(cn3)ncn4C(C)C)n2)CC1 [Example 56, N-(2-(4-Isopropoxypiperidin-1-yl)pyrimidin-4-yl)-1-isopropyl-1H-imidazo[4,5-c]pyridin-6-amine]
15 | 1.68 | CC(C)n1cnc2cnc(Nc3ccnc(N4CCCCO4)n3)cc21 [Example 136, (1-Isopropyl-1H-imidazo[4,5-c]pyridin-6-yl)-(2-[1,2]oxazinan-2-ylpyrimidin-4-yl)amine]
16 | 0.0418 | COCCC(C)(C)n1c(CO)nc2cnc(Nc3ccnc(-c4cnn(S(=O)(=O)C5CC5)c4)n3)cc21 [Example 695]
17 | 0.00249 | COCCNc1nc2cnc(Nc3ccnc(-c4cnn(S(=O)(=O)C5CC5)c4)n3)cc2n1C(C)C [Example 537, N^6-[2-(1-cyclopropanesulfonyl-1H-pyrazol-4-yl)-pyrimidin-4-yl]-1-isopropyl-N^2-(2-methoxyethyl)-1H-imidazo[4,5-c]pyridine-2,6-diamine]
18 | 0.0281 | COC1CCN(c2nccc(Nc3cc4c(cn3)ncn4C(C)C(F)(F)F)n2)CC1 (centres unmarked) [Example 157, [2-(4-Methoxypiperidin-1-yl)pyrimidin-4-yl]-[1-(2,2,2-trifluoro-1-methylethyl)-1H-imidazo[4,5-c]pyridin-6-yl]amine formate salt]
19 | 0.122 | COC1(CN)CCN(c2nccc(Nc3cc4c(cn3)nc(CO)n4C(C)C)n2)CC1 [Example 274, {6-[2-(4-Aminomethyl-4-methoxypiperidin-1-yl)pyrimidin-4-ylamino]-1-isopropyl-1H-imidazo[4,5-c]pyridin-2-yl}methanol]

Row | Ki [µM] | Compound
20 | 0.00149 | C[C@@H](O)c1nc2cnc(Nc3ccnc(-c4cnn(S(=O)(=O)C5CC5)c4)n3)cc2n1[C@H](C)C(F)(F)F [Example 540, (R)-1-[(R)-6-[2-(1-Cyclopropanesulfonyl-1H-pyrazol-4-yl)pyrimidin-4-ylamino]-1-(2,2,2-trifluoro-1-methyl-ethyl)-1H-imidazo[4,5-c]pyridin-2-yl]ethanol]
21 | 0.0629 | Cc1nc2cnc(Nc3ccnc(-c4cnn(S(=O)(=O)C5CC5)c4)n3)cc2n1CC1CCOCC1 [Example 539, [2-(1-Cyclopropanesulfonyl-1H-pyrazol-4-yl)-pyrimidin-4-yl]-[2-methyl-1-(tetrahydropyran-4-ylmethyl)-1H-imidazo[4,5-c]pyridin-6-yl]amine]
22 | 0.00303 | CC(CC1CC1)n1c(CO)nc2cnc(Nc3ccnc(-c4cnn(S(=O)(=O)C5CC5)c4)n3)cc21 (centres unmarked) [Example 488, (1-(1-cyclopropylpropan-2-yl)-6-(2-(1-(cyclopropylsulfonyl)-1H-pyrazol-4-yl)pyrimidin-4-ylamino)-1H-imidazo[4,5-c]pyridin-2-yl)methanol]
23 | 0.0126 | COC1CCN(c2nccc(Nc3cc4c(cn3)c(C(=O)NCCCN3CCOCC3)cn4C(C)C)n2)CC1 [Example 244]
24 | 1.72 | CC(C)n1cnc2cnc(Nc3ccnc(N4CC5CCNC5C4)n3)cc21 (centres unmarked) [Example 236]
25 | 0.0949 | Cc1nc2cnc(Nc3ccnc(-c4cnn(CC5(C)COC5)c4)n3)cc2n1C(C)C [Example 431, 1-isopropyl-2-methyl-N-(2-(1-((3-methyloxetan-3-yl)methyl)-1H-pyrazol-4-yl)pyrimidin-4-yl)-1H-imidazo[4,5-c]pyridin-6-amine]
26 | 0.00178 | Cc1nc2cnc(Nc3ccnc(-c4cnc(N(C)C)s4)n3)cc2n1C(C)C [Example 317, [2-(2-Dimethylaminothiazol-5-yl)pyrimidin-4-yl]-(1-isopropyl-2-methyl-1H-imidazo[4,5-c]pyridin-6-yl)amine]
27 | 0.00259 | COC1CCN(c2nccc(Nc3cc4c(cn3)c(-c3ccn(CC(N)=O)n3)cn4C(C)C)n2)CC1 [Example 411, 2-(3-(1-isopropyl-6-((2-(4-methoxypiperidin-1-yl)pyrimidin-4-yl)amino)-1H-pyrrolo[3,2-c]pyridin-3-yl)-1H-pyrazol-1-yl) acetamide]
28 | 0.745 | COCC1CN(c2nccc(Nc3cc4c(cn3)ncn4C(C)C)n2)CCN1 (centres unmarked) [Example 241]
29 | 0.171 | CC(C)n1cnc2cnc(Nc3ccnc(N4CCc5[nH]cnc5C4)n3)cc21 [Example 154]
30 | 0.159 | Cc1nc2cnc(Nc3ccnc(-c4ccncc4)n3)cc2n1C(C)C [Example 585, (1-Isopropyl-2-methyl-1H-imidazo[4,5-c]pyridin-6-yl)-(2-pyridin-4-ylpyrimidin-4-yl)amine]
31 | 0.00268 | CNc1nc2cnc(Nc3ccnc(-c4cnn(S(=O)(=O)C5CC5)c4)n3)cc2n1C(C)C [Example 293, N^6-[2-(1-Cyclopropanesulfonyl-1H-pyrazol-4-yl)pyrimidin-4-yl]-1-isopropyl-N^2-methyl-1H-imidazo[4,5-c]pyridine-2,6-diamine]
32 | 0.255 | CC(C)n1cnc2cnc(Nc3ccnc(N4CCC5(CCCO5)C4)n3)cc21 (single isomer, unassigned) [Example 102, N-(2-(1-oxa-7-azaspiro[4.4]nonan-7-yl)pyrimidin-4-yl)-1-isopropyl-1H-imidazo[4,5-c]pyridin-6-amine]
33 | 0.211 | CC(C)n1cnc2cnc(Nc3ccnc(N4CC5CCC(C4)O5)n3)cc21 [Example 35, N-(2-(8-Oxa-3-aza-bicyclo[3.2.1]octan-3-yl)pyrimidin-4-yl)-1-isopropyl-1H imidazo[4,5-c]pyridin-6-amine]
34 | 0.317 | CC(C)n1c(CO)nc2cnc(Nc3ccnc(N4CCC(S(=O)(=O)C(C)C)CC4)n3)cc21 [Example 554, (1-Isopropyl-6-{2-[4-(propane-2-sulfonyl)piperidin-1-yl]pyrimidin-4-ylamino}-1H-imidazo[4,5-c]pyridin-2-yl)methanol]
35 | 1.62 | COC[C@@H]1[C@H]2CN(c3nccc(Nc4cc5c(cn4)ncn5C(C)C)n3)C[C@@H]12 [Example 48, 1-isopropyl-N-(2-((1R,5S,6r)-6-(methoxymethyl)-3-azabicyclo[3.1.0]hexan-3-yl)pyrimidin-4-yl)-1H-imidazo[4,5-c]pyridin-6-amine]
36 | 0.00318 | C[C@H](n1c(CO)nc2cnc(Nc3ccnc(N4CC[C@@H](O)[C@@H](F)C4)n3)cc21)C(F)(F)F [Example 666]
37 | 0.512 | CC(C)n1cnc2cnc(Nc3ccnc(N4CCC(C(C)(C)O)CC4)n3)cc21 [Example 143, 2-{1-[4-(1-Isopropyl-1H-imidazo[4,5-c]pyridin-6-ylamino)-pyrimidin-2-yl]-piperidin-4-yl}-propan-2-ol]

Row | Compound | Ki [µM]
38 | CO[C@H]1CCN(c2nccc(Nc3cc4c(cn3)nc(C)n4C(C)C)n2)C[C@@H]1F (racemic) [Example 525, (±)-[2-((trans)-3-Fluoro-4-methoxypiperidin-1-yl)pyrimidin-4-yl]-(1-isopropyl-2-methyl-1H-imidazo[4,5-c]pyridin-6-yl)amine] | 0.0426

Where a name gives a salt, the structure may show the parent alone.
